Measurements taken from patent US20160076075A1 (priority 2014, published 2016).

Test system: IMCSzyme™ (recombinant glucuronidase)
Experiment: IMCSzyme hydrolysis of buprenorphine and norbuprenorphine glucuronides
Assay type: biochemical
Details: summary of Table 1

In the case of Norbuprenorphine Glucuronide, the “Cleavage by the recombinant enzyme (in words)” value was “requiring some time and heat to cleave”.

Some compounds may have been tested in ways that are not shown here.
